Target: human Somatostatin 4 receptor (SSTR4) (Homo sapiens (Human), UniProt P31391)
Experiment: cAMP assay with human somatostatin 4 receptor (hSSTR4 expressing H4 cells)
Format: cell-based
Details: read-out: SSTR4 agonism EC50
Description: Method Description for cAMP Assay with Human Somatostatin 4 Receptor
The activation of the SSTR4 receptor (Gi coupled) causes an inhibition of intracellular cAMP after stimulation with Forskolin, which can be quantifiable by use of a suitable assay Kit and an adequate plate reader. This technique is used to characterize pharmacological effects of the SSTR4 receptor agonists by use of hSSTR4 expressing H4 cells.
Compounds are dissolved and diluted in DMSO. The final test solution contains 1% DMSO. […] Cells are centrifuged and suspended in assay buffer (incl. 1:100 diluted Alexa antibody).
For the assay 5 μl of a cell suspension (approximately 5000 cells/well)—incl. Alexa antibody (diluted 1:100) are added into a 384 well MTP microtitre plate excepting one row or column (depending on the plate layout), which is reserved for the standard curve. Then 2 μl of compound sample is added as concentration response curve (e.g. 1e-5 M to 6e-10 M), usually in triplicates. Each assay contains incubations with vehicle controls instead of compound as controls for non-inhibited cAMP generation (100% CTL; ‘high values’) and incubations with 1 μM Somatosatin as controls for full inhibition and background (0% CTL; ‘low values’). […] Then the plates are shaken briefly and incubated for 60 min at room temperature. After 60 min 10 μl of the detection mix is added into all wells followed by an additional incubation period of 1 h. The plates are read in a suitable plate reader.
From this ratio, cAMP concentrations are calculated from standard curve and the EC50 is estimated by least square curve fit program.

Protein sequences, listed by entry. Tags and fused reporters are not part of them. Lines headed by an entry give the natural chain unless they say otherwise; changes in a name come on top.
UniProt P31391: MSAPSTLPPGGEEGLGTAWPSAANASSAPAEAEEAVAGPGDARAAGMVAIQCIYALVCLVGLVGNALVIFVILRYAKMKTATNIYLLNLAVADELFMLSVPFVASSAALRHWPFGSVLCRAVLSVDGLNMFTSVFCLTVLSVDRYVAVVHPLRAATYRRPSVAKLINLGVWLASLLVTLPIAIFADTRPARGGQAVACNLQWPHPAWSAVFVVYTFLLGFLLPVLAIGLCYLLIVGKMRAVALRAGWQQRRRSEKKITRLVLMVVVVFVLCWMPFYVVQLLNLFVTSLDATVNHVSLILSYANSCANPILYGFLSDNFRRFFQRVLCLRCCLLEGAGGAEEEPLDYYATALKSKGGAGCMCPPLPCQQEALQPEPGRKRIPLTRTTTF

Structure (SMILES) | EC50
Cc1nnc(C(C)(C)NC(=O)[C@H]2[C@@H]3CNC[C@@H]32)c2ccccc12 [Example 77] | 0.5 nM
CC(C)(NC(=O)[C@H]1[C@@H]2CNC[C@@H]21)c1ncnc2ccccc12 [Example 89] | 2.6 nM
CC(C)(NC(=O)[C@H]1[C@@H]2CNC[C@@H]21)c1cncc2ccccc12 [Example 90] | 1.4 nM
CC(C)(NC(=O)[C@H]1[C@@H]2CNC[C@@H]21)c1cccc2cnccc12 [Example 91] | 87.2 nM
Cc1cccc2c(C(C)(C)NC(=O)[C@H]3[C@@H]4CNC[C@@H]43)noc12 [Example 92] | 0.4 nM
CC(C)(NC(=O)[C@H]1[C@@H]2CNC[C@@H]21)c1noc2c(Cl)cccc12 [Example 103] | 0.3 nM
CC(C)(NC(=O)[C@H]1[C@@H]2CNC[C@@H]21)c1noc2c(C3CC3)cccc12 [Example 104] | 1.7 nM
